From publication doi:10.1101/2024.12.09.627393

Amino acid sequences for entries named in this document (tags omitted). Residues count along the entry.
UniProt Q9BXF3, 424-538: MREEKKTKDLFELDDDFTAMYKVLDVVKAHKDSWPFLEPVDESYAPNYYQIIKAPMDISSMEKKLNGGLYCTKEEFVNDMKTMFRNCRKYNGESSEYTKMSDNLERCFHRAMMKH

Target: CECR2 bromodomain (CECR2-BRD), wild type, GST tag cleaved (human) (UniProt Q9BXF3)
Assay: ITC; peptide ligand in the syringe (0.6-[…]), CECR2-BRD in the sample cell (0.05-0.10 mM); 5°C; 20 mM sodium phosphate pH 7.0, 150 mM NaCl, 1 mM TCEP; single set of binding sites model; binding runs in triplicate

Substance: RelAK310ac (305–315) peptide
- Kd: 112 µM
- stoichiometry N: 1
